PubChem BioAssay AID1917 (Vanderbilt High Throughput Screening Facility, 2009)
About 1,600 (53%) of roughly 3,000 compounds were called active. The set was probably picked from earlier hits. Only results without a clear call are listed here; the source files them as inconclusive.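 How the source made its calls: active means Flux at 10 µM at least 3 SD below or above vehicle control mean in one or both replicates; inconclusive means no clear call, values can overlap the other calls; inactive means the rest.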

Protein sequences, listed by entry. Tags and fused reporters are not part of them. Lines headed by an entry give the natural chain unless they say otherwise; changes in a name come on top.
UniProt P48048: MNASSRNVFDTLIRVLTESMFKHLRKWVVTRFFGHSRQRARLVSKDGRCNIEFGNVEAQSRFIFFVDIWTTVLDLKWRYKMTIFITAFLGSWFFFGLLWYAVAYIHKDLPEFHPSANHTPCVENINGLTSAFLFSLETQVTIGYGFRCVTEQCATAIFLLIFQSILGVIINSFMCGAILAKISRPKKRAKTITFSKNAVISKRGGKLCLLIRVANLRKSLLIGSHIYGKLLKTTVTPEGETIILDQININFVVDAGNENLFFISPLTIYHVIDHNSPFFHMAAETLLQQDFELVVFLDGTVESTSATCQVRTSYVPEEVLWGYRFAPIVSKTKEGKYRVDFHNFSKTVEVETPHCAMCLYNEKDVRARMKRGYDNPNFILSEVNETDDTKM

The molecules below were run against ATP-sensitive inward rectifier potassium channel 1 (Homo sapiens) (UniProt P48048) (assay: retested modulators of human Kir1.1 channel – cell-based, thallium flux, duplicate, resupplied hits, confirmation (AID 1917)). Details: ROMK thallium flux, fluorescence ratio; at 10 µM; stronger effect = lower value.

Compound | normalized thallium flux (F/F0 slope)
CCc1nc2c(n1)c1c(non1O)c1c2no[n+]1[O-] | inconclusive: 0.0985
